Reference: patent US9360484B2, “Anti-FcRH5 antibodies and immunoconjugates and methods of use” (Genentech, Inc., priority 2009, dated 2016)

Legend:
OPM2-FcRH5 tumors [1] = experiment: Inhibition of in vivo tumor growth, OPM2-FcRH5 xenografts (Example 5); set-up: species or system CB17 ICR SCID mice; conditions: single i.v. dose 4 mg/kg Ab, day 0, 8 mice
Description: To test the efficacy of hu10A8 thioMAb drug conjugates with MC-vc-PAB-MMAE and hu10A8 drug conjugates with SPDB-DM4, the effects of the 10A8 thioMab drug conjugates and 10A8 drug conjugates on tumors in mice were analyzed.
(§1) Specifically, the ability of the antibodies to regress tumors in OPM2 cells (Multiple myeloma cell line) stably transfected with human FcRH5 was examined.
(§2) After transfection of linearized pRK.CMV.PD.nbe.FcRH5 into OPM2 cells and puromycin (Calbiochem, San Diego, Calif.) selection, surviving cells were separated for FcRH5 expressing cells with biotin (Pierce Biotechnology, Rockford, Il) labeled anti-FcRH5.7D11 and MACS anti-Biotin microbeads on an MACS LS column (Miltenyi Biotec, Auburn, Calif.).
For analysis of efficacy of hu10A8 thioMAb drug conjugates with MC-vc-PAB-MMAE and hu10A8 druge conjugates with SPDB-DM4, female CB17 ICR SCID mice (6-8 weeks of age from Charles Rivers Laboratories; Hollister, Calif.) were inoculated subcutaneously with 2×10^7 OPM2-FcRH5 cells via injection into the flanks of CB17 ICR SCID mice and the xenograft tumors were allowed to grow to an average of 180 mm^3. Day 0 refers to the day the tumors were an average of 100-250 mm^3 and when the first/or only dose of treatment was administered, unless indicated specifically below. Tumor volume was calculated based on two dimensions, measured using calipers, and was expressed in mm^3 according to the formula: V=0.5a X b^2, where a and b are the long and the short diameters of the tumor, respectively. Data collected from each experimental group were expressed as mean±SE. Groups of 8 mice were treated with a single intravenous (i.v.) dose of 2, 4, or 8 mg ADC/kg of with anti-FcRH5 ADC or control antibody-drug conjugates. Tumors were measured twice a week throughout the experiment. Body weights of mice were measured once a week throughout the experiment. […] All animal protocols were approved by an Institutional Animal Care and Use Committee (IACUC).

OPM2-FcRH5 tumors [2] = experiment: Inhibition of in vivo tumor growth, OPM2-FcRH5 xenografts, dose range of hu10A8-SPDB-DM4 (Example 6); set-up: species or system CB17 ICR SCID mice; conditions: single i.v. dose 12 mg/kg Ab, day 0, 9 mice
Excerpt: as §1, §2
Day 0 refers to the day the tumors were an average of 100-250 mm^3 and when the first/or only dose of treatment was administered, unless indicated specifically below. […] Data collected from each experimental group were expressed as mean±SE. […] Tumors were measured twice a week throughout the experiment. Body weights of mice were measured once a week throughout the experiment. […] All animal protocols were approved by an Institutional Animal Care and Use Committee (IACUC).

[3] = test system: OPM2-FcRH5 tumors (OPM2 multiple myeloma cells stably transfected with human FcRH5); experiment: OPM2-FcRH5 xenograft: Hu anti-FcRH5 10A8-SPDB-DM4 alone and in combination with Velcade; assay type: in vivo, CB17 ICR SCID mice; conditions: 37 day time course; ADC 4 mg/kg single IV day 0; Velcade 1 mg/kg IV days 0, 3, 7, 10
Excerpt: Specifically, the ability of the antibody and Velcade® to regress tumors in OPM2 cells (Multiple myeloma cell line) stably transfected with human FcRH5 was examined. After transfection of linearized […]5 into OPM2 cells and puromycin (Calbiochem, San Diego, Calif.) selection, surviving cells were separated for FcRH5 expressing cells with biotin (Pierce Biotechnology, Rockford, Il) labeled anti-FcRH5.7D11 and MACS anti-Biotin microbeads on an MACS LS column (Miltenyi Biotec, Auburn, Calif.). Post separation FcRH5 expression was confirmed by FACS analysis using anti-FcRH5 antibodies (10A8) and an OPM2 cell line transfected, in the same manner, with the empty vector pRK.CMV.PD.nbe as a negative control. […] Tumor volume was calculated based on two dimensions, measured using calipers, and was expressed in mm3 according to the formula: […] Data collected from each experimental group were expressed as mean±SE. Mice were randomized into six groups of 9 mice each and dosed. […] Group 2 received a single IV injection of histidine buffer on Day 0 plus IV injections of 0.9% sodium chloride (saline) twice weekly for two weeks on Days 0, 3, 7, and 10 as a vehicle control. […] Tumors were measured twice a week throughout the experiment. Body weights of mice were measured twice a week for the first three weeks. […] All animal protocols were approved by an Institutional Animal Care and Use Committee (IACUC). Negative control included anti-HER2 (HERCEPTIN®) (trastuzumab)) based conjugate (SPDB-DM4).

[4] = test system: EJM-FcRH5.LSP.2 tumors (EJM multiple myeloma cells stably transfected with human FcRH5); experiment: EJM-FcRH5.LSP.2 xenograft: hu10A8-SPDB-DM4 at different dosages; assay type: in vivo, CB17 ICR SCID mice; conditions: 8 mg/kg single IV day 0; 24 day time course
Description: To test the efficacy of hu10A8 drug conjugates with SPDB-DM4 (“hu-Anti-FcRH5 (10A8)-SPDB-DM4”) at different dosages, the effects of the conjugated antibody on tumors in mice were analyzed.
Specifically, the ability of the antibodies to regress tumors in EJM cells (Multiple myeloma cell line) stably transfected with human FcRH5 was examined.
EJM (ACC-560) cells are a commercially available human multiple myeloma cell line obtained from DSMZ (Germany).
For analysis of efficacy of hu10A8 drug conjugates with SPDB-DM4, female CB17 ICR SCID mice (6-8 weeks of age from Charles Rivers Laboratories; Hollister, Calif.) were inoculated subcutaneously with 2×10^7 EJM2-FcRH5.LSP.2 cells via injection into the flanks of CB17 ICR SCID mice and the xenograft tumors were allowed to grow to an average of 134 mm^3. Day 0 refers to the day the tumors were an average of 100-250 mm^3 and when the first/or only dose of treatment was administered, unless indicated specifically below. Tumor volume was calculated based on two dimensions, measured using calipers, and was expressed in mm^3 according to the formula: V=0.5a×b^2, where a and b are the long and the short diameters of the tumor, respectively. Data collected from each experimental group were expressed as mean±SE. Groups of 8 mice were treated with a single intravenous (i.v.) dose ranging from 2 to 8 mg ADC/kg of with anti-FcRH5 ADC or control antibody-drug conjugates (ADCs). Tumors were measured twice a week throughout the experiment. Body weights of mice were measured once a week for 2 weeks. […] All animal protocols were approved by an Institutional Animal Care and Use Committee (IACUC).
Negative control included anti-HER2 (HERCEPTIN® (trastuzumab)) based conjugate (SPDB-DM4).

Row | Substance | CR (Complete Remission, number of mice) (OPM2-FcRH5 tumors [1]) | PR (Partial Regression, number of mice) (OPM2-FcRH5 tumors [1]) | TI (number of observable tumors at end of study) (OPM2-FcRH5 tumors [1]) | CR (Complete Remission, number of mice) (OPM2-FcRH5 tumors [2]) | PR (Partial Regression, number of mice) (OPM2-FcRH5 tumors [2]) | CR (mice with Complete Remission: tumor volume dropped to 0 mm^3) [3] | PR (mice with Partial Regression: tumor volume dropped below 50% of day 0) [3] | TI (number of observable tumors at end of study) [3] | CR (mice with Complete Remission) [4] | PR (mice with Partial Regression) [4] | TI (number of observable tumors at end of study) [4]
1 | Anti-Her2 (4D5)-spdb-dm4: negative control, humanized anti-HER2 conjugated with SPDB-DM4 | 0 | 0 | 8/8 | 0 | 0 | – | – | – | – | – | –
2 | Hu anti-Her2 Trastuzumab-SPDB-DM4 | – | – | – | – | – | 0 | 0 | 8/8 | 0 | 0 | 8/8
